According to publication PMC4917012:

Tested on: NCCc1c[nH]c2ccccc12
Experiment: purified protein
Details: 100 mM NaCl, 100 μM NAD and FAD, 2.5 μM MBP-RebF, 2.5% DMSO, 25 mM HEPES pH 7.4, 25 °C
[1] = variant 8F (changes summed along the printed lineage, b15-b20), 25 μM enzyme

RebH (rebeccamycin halogenase) (Lentzea aerocolonigenes; N470S)
Km (variant 0S, 0.1 μM): 10.6 µM | kcat (variant 0S, 0.1 μM): 0.00225 s⁻¹ | kcat/Km (variant 0S, 0.1 μM): 433 M⁻¹ s⁻¹

RebH (rebeccamycin halogenase) (Lentzea aerocolonigenes; F465L/I52M/L380F/N166S/N470S/Q494R/R509Q/S110P/S130L/S448P/Y455W)
Km [1]: 1747 µM | kcat [1]: 0.000617 s⁻¹ | kcat/Km [1]: 0.35 M⁻¹ s⁻¹
